# Assay results reported in publication PMC7646624 (European journal of medicinal chemistry, 2020).
# By UniProt entry, the sequences of proteins in these tests, tags left out. Where a name states a change or a piece, a line headed by the entry shows the natural chain unless it says otherwise. Residues count along the entry.
# UniProt Q8TEK3, 1-420: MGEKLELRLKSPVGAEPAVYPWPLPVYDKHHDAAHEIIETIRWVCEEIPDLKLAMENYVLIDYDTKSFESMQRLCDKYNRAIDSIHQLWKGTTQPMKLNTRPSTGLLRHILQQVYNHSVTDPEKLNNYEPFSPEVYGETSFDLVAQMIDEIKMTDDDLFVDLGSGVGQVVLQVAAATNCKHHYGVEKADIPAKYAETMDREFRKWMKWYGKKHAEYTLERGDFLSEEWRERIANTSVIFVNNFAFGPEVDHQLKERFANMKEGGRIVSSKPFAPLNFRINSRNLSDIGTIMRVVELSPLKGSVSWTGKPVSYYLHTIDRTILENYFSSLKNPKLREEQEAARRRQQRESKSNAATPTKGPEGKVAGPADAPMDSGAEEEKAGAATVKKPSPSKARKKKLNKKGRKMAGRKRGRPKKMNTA
# UniProt P26358: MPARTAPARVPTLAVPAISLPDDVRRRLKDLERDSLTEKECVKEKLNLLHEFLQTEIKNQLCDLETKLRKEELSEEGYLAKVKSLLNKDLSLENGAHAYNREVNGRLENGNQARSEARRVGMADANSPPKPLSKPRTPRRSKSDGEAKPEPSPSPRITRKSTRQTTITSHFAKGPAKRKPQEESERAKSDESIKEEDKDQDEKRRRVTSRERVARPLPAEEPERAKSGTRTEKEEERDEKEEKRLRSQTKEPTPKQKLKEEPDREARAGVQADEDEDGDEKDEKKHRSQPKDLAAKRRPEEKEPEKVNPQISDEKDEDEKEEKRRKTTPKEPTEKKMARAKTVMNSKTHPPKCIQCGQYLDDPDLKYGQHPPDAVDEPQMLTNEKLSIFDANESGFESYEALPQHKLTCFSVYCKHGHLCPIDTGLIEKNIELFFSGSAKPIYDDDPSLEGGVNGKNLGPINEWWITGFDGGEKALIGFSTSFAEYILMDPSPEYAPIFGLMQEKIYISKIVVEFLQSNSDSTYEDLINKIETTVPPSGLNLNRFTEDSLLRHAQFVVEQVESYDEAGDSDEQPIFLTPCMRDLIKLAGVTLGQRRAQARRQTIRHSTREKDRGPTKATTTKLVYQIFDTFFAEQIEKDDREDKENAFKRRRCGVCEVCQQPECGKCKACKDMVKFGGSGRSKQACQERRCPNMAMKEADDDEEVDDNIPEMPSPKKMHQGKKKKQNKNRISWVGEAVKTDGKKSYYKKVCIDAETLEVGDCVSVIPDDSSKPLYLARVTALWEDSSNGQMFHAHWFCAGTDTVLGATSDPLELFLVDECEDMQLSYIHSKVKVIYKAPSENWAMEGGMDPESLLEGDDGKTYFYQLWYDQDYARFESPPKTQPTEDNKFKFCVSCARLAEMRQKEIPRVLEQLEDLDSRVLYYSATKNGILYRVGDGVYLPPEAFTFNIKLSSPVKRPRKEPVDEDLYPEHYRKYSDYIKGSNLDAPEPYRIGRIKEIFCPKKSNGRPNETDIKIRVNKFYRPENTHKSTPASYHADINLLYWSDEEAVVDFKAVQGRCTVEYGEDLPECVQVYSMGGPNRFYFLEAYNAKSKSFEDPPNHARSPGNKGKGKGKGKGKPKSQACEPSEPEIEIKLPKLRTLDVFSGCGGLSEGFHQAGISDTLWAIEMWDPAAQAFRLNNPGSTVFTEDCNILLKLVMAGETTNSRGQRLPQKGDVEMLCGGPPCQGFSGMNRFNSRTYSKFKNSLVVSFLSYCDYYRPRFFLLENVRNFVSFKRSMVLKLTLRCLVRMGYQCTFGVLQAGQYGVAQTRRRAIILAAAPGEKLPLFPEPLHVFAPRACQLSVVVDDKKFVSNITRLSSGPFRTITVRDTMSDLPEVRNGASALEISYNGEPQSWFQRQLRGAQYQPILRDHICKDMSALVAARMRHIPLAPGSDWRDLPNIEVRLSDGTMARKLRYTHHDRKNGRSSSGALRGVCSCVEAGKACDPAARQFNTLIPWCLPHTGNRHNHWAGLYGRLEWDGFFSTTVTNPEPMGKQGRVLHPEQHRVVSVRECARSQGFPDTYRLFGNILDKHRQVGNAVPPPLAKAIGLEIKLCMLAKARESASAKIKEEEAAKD
# UniProt Q9NR22, whole entry: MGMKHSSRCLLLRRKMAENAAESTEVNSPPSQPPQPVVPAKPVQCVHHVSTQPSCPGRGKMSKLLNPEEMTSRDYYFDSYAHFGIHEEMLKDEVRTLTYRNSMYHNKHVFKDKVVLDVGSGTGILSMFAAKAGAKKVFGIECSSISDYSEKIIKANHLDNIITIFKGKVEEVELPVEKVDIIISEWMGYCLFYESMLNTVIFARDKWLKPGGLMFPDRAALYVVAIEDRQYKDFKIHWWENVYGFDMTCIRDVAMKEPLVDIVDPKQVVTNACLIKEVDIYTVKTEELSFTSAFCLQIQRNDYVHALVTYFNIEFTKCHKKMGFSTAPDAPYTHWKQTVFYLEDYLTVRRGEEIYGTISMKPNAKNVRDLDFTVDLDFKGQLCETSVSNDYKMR
# Assays:
# GST-DOT1L [1] = target: T1, GST-DOT1L (Homo sapiens, UniProt Q8TEK3); assay: Thermal stability shift assay; type: binding; conditions: 10 μM GST-DOT1L, various concentrations of compound
# GST-DOT1L [2] = target: T1, GST-DOT1L; conditions: ratio of MTase-Glo IC50 values
# DNMT1 = DNMT1 (Homo sapiens, UniProt P26358)
# PRMT8 = PRMT8 (Homo sapiens, UniProt Q9NR22)
# E2A-HLF cells = conditions: DOT1L-independent negative control line
# [3] = test system: MLL-AF9 transformed cells; conditions: 3 μM
SMILES,thermal shift of DOT1L (direct binding) (GST-DOT1L [1]),fold improvement of DOT1L inhibition in comparison with hit 9 (GST-DOT1L [2]),"selectivity (SI) for DOT1L (IC50 MT/IC50 DOT1L), DNMT1 (DNMT1)","selectivity (SI) for DOT1L (IC50 MT/IC50 DOT1L), PRMT8 (PRMT8)",effect on the growth of E2A-HLF cells (E2A-HLF cells),"cell differentiation, Wright-Giemsa stain [3]"
"CC(C)(C)c1ccc(NC(=O)c2ncn(CC(=O)NCCn3ccc4c(N)ncnc43)n2)cc1 [Compound 25, 1-(2-((2-(4-amino-7H-pyrrolo[2,3-d]pyrimidin-7-yl)ethyl)amino)-2-oxoethyl)-N-(4-(tert-butyl)phenyl)-1H-1,2,4-triazole-3-carboxamide]",dose-dependent stabilization of DOT1L,40 fold,ca. 250,> 250,–,–
"CC(C)N(CCCNC(=O)Nc1ccc(C(C)(C)C)cc1)C[C@H]1O[C@@H](n2ccc3c(N)ncnc32)[C@H](O)[C@@H]1O [EPZ004777, reference compound]",–,–,–,–,doesn’t show any effect on the growth,inducing cell differentiation
